# Patent publication US20080213813A1, “Histone deacetylase inhibitor and use thereof” (priority 2002, published 2008)
# Target: T1, HDAC6 (Homo sapiens, UniProt Q9UBN7)
# T1 sequence (Q9UBN7 1-1215): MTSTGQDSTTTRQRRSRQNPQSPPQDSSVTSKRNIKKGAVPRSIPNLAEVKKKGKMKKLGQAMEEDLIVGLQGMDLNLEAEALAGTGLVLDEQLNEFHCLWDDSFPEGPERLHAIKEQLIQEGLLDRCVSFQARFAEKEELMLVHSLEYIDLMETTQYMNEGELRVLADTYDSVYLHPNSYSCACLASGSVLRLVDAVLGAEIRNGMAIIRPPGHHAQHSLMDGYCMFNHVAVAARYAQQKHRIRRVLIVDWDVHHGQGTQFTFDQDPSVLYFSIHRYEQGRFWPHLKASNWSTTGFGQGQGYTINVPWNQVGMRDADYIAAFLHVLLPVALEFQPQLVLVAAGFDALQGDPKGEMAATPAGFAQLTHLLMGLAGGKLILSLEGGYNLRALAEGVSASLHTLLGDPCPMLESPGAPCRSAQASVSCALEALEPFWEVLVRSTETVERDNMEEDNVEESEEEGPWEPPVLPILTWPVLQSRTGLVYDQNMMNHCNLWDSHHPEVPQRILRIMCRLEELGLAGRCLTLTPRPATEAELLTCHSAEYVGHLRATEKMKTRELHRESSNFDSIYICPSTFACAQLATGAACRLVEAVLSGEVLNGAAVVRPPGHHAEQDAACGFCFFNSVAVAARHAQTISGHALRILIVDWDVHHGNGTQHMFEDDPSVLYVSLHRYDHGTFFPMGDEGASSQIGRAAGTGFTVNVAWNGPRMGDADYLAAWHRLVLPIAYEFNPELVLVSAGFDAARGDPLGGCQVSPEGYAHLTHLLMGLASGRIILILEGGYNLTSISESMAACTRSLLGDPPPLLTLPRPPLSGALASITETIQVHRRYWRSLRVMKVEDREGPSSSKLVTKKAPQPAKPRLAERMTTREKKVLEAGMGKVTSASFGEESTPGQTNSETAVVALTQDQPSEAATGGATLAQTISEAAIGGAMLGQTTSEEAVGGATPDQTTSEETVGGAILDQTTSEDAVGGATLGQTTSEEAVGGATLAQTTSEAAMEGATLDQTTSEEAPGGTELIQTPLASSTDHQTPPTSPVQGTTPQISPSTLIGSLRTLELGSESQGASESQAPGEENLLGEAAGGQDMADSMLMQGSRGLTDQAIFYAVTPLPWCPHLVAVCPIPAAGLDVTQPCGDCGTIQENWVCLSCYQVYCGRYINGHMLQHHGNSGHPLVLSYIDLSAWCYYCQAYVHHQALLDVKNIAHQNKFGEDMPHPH
# Assay: Deacetylating activity of recombinant HDAC6 (HDAC Fluorescent Activity Assay/Drug Discovery Kit)
# Conditions: 1 μM Trichostatin A in assay; recombinant His6-HDAC6; FIG. 1
structure (smiles),measurement,value
CC(/C=C/C(=O)NO)=C\[C@@H](C)C(=O)c1ccc(N(C)C)cc1 [Trichostatin A],deacetylating activity of the HDAC6 protein,completely inhibited
